We go through three compounds from ChEMBL document CHEMBL2385020, “Evaluation of N-phenyl homopiperazine analogs as potential dopamine D3 receptor selective ligands” (Bioorg Med Chem, 2013).

By UniProt entry, the sequences of proteins in these tests, tags left out.
UniProt P35462, whole entry: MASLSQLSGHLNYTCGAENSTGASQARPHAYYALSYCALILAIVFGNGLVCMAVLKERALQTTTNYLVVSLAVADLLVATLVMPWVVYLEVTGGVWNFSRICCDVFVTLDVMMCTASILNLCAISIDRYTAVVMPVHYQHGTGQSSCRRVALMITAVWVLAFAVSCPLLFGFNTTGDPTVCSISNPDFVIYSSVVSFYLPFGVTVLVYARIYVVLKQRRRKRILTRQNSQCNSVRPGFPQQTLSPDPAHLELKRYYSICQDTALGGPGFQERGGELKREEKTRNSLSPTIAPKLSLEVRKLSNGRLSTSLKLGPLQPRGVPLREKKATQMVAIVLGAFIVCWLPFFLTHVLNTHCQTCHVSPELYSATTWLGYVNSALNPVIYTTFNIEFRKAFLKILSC

The assay addresses D(3) dopamine receptor (Homo sapiens, UniProt P35462). Briefly: Intrinsic activity at human dopamine D3 receptor expressed in HEK293 cells assessed as inhibition of forskolin-induced adenylyl cyclase activity relative to quinpirole. The assay is classed as functional, cell-based. The essentials:
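Whole-cell forskolin-dependent adenylyl cyclase assay in stably transfected HEK 293 cells, read as percent inhibition. […] Normalized to the full agonist quinpirole, used at 1 μM for D2. Mean ± SEM, n = 3.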
Take `COc1ccccc1N1CCCN(CCCCNC(=O)c2cc3ccccc3[nH]2)CC1`: the Intrinsic activity was found to be 59.5%.
The same measure for `COc1ccccc1N1CCCN(CCCCNC(=O)c2ccc(SC)cc2)CC1`: 67.9%; for `COc1ccccc1N1CCCN(CCCCNC(=O)c2ccc(Cl)nc2)CC1`: 74.5%.
